# Measurements: patent US20050203135A1, “Antagonists for treatment of CD/11CD18 adhesion receptor mediated disorders” (Genentech, Inc., priority 1998, published 2005)
# Chains of the proteins cited; added tags and fusions are not shown. Residues count along the entry.
# UniProt P05107, 23-769: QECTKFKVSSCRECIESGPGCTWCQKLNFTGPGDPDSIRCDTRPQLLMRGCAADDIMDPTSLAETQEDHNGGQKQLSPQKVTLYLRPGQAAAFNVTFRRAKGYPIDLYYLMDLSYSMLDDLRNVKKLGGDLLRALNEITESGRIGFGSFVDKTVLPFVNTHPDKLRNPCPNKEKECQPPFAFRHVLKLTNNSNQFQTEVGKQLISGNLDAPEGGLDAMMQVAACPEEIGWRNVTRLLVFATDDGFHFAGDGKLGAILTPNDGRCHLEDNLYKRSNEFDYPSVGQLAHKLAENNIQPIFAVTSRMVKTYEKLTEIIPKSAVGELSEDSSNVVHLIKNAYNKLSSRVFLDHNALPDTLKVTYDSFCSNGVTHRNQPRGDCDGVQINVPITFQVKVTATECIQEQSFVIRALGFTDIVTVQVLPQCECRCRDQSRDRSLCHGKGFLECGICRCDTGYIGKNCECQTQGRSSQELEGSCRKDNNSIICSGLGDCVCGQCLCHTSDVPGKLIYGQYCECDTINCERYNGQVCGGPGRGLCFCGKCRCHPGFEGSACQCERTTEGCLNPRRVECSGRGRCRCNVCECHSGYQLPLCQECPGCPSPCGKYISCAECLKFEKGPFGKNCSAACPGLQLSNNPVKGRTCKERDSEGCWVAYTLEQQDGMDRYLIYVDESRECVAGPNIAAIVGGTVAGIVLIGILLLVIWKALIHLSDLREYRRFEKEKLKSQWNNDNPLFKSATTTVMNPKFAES
# UniProt P20701, 26-1170: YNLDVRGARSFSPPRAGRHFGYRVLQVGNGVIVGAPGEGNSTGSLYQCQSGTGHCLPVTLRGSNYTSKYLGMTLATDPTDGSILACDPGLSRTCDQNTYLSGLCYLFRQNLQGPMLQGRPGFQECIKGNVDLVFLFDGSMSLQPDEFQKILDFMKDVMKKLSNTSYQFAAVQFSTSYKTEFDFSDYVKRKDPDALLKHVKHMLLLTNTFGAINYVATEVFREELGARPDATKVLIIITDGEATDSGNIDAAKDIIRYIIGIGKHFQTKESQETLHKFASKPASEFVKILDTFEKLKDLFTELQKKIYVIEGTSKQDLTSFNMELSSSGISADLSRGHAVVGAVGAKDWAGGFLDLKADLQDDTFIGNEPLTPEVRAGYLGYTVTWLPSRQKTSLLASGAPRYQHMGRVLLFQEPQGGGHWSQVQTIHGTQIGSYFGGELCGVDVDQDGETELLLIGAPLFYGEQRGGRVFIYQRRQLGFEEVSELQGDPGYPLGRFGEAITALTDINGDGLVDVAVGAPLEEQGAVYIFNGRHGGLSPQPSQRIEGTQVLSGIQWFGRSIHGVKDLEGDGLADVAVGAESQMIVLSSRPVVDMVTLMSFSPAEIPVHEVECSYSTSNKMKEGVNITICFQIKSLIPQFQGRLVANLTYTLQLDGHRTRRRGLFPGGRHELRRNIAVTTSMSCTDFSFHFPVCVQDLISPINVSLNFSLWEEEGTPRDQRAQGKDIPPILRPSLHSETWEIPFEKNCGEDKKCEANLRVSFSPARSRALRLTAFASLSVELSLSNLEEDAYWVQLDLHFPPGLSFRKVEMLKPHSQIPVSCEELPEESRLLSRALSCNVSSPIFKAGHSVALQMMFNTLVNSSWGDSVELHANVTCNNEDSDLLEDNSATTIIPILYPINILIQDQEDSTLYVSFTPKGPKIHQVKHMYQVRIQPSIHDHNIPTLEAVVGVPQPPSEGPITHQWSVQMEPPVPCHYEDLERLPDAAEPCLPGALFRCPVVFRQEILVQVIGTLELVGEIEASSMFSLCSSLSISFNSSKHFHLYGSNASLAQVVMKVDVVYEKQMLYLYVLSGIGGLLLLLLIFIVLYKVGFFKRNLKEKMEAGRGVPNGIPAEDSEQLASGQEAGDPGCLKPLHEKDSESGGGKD
# Target: CD11a/CD18-ICAM-1 interaction (recombinant human LFA-1 / human 5 domain ICAM-Ig) (Homo sapiens, UniProt P05107+P20701)
# Conditions: read-out: PLM2
substance,measurement,value
"2,2,2-trichloroethyl chloroformate [Example 333]",IC50,90 nM
